Source: patent US11058674B2 (priority 2016, dated 2021)

Chains of the proteins cited; added tags and fusions are not shown. Lines headed by an entry give the natural chain unless they say otherwise; changes in a name come on top.
UniProt P41146: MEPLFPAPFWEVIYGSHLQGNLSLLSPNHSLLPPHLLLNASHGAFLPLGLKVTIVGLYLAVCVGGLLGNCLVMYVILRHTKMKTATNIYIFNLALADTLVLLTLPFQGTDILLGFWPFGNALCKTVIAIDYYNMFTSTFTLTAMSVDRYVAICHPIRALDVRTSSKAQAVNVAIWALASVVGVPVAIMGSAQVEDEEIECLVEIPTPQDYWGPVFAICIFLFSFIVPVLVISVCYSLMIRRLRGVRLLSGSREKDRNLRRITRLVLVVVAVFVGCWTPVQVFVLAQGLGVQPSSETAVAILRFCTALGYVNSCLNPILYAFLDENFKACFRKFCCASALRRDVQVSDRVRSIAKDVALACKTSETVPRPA
UniProt P35372, whole entry, looked up: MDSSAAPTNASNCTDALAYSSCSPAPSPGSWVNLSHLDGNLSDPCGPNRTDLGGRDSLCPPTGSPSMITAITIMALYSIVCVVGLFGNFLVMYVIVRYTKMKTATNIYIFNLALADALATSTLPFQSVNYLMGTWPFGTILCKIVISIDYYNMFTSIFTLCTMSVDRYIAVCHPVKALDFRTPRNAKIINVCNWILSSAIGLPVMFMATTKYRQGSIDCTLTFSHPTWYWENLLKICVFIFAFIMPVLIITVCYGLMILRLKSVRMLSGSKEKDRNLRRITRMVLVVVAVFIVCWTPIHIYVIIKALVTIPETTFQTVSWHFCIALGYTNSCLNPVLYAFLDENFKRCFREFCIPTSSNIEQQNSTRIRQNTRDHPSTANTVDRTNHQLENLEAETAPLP

Legend:
[1] = biological target: NOP receptor (Homo sapiens, UniProt P41146); assay: Affinity to the NOP receptor
[2] = test system: rhesus monkeys; assay: Cocaine self-administration in monkey
[3] = biological target: MOP receptor (Homo sapiens, UniProt P35372); assay: Affinity to the MOP receptor
[4] = test system: male Long-Evans hooded rats; assay: Stress-induced (footshock) cocaine seeking behavior in rat, reinstatement test; conditions: Compound A 3 mg/kg p.o., 30 minutes before session
[5] = test system: rhesus monkeys; assay: Food acquisition test (Food 1, Food 2) in monkey, central nervous system (CNS) depressant action

## CNC(=O)Cn1c(=O)n(C2CCN([C@@H]3CCCc4c(C)cccc43)CC2)c2ccccc21
[1]
  affinity to the NOP receptor: high affinity
[1]; relative to MOP receptor
  NOP receptor selectivity: high NOP receptor selectivity
[2]; Compound A 0.1, 0.32 and 0.56 mg/kg i.m.
  number of rewards in the cocaine self-administration: dose-dependently reduced
[2]; cocaine 0.01 mg/kg/inj, Compound A 0.1 or 0.32 mg/kg
  number of rewards at the strongest rewarding effects of cocaine: significantly decreased
[3]
  affinity to the MOP receptor: low affinity
[4]
  cocaine seeking behavior induced by the footshock stress (active lever presses): significantly suppressed
[5]; Compound A 0.56 mg/kg i.m.
  number of food acquisition in food component 1 (Food 1): reduced
  reduction of the number of food acquisition in food component 2 (Food 2): not observed
[5]; Compound A 0.1 and 0.32 mg/kg i.m.
  number of food acquisition in food component 1 (Food 1): did not affect
